{"source": "paper PMC5793130", "about": "“The Peptide PnPP-19, a Spider Toxin Derivative, Activates μ-Opioid Receptors and Modulates Calcium Channels” (Toxins, 2018)", "tested_on": "human μ-opioid receptor (hMOR)", "experiment": "Two-microelectrode voltage-clamp of opioid receptor-activated GIRK1/GIRK2 current in oocytes expressing hMOR", "assay_type": "cell-based", "conditions": "X. laevis oocytes co-expressing GIRK1/GIRK2, RGS4 and hMOR; −70 mV; HK solution; room temperature; morphine 1 μM, PnPP-19 1 or 10 μM"}
{"smiles": "CN1CC[C@]23c4c5ccc(O)c4O[C@H]2[C@@H](O)C=C[C@H]3[C@H]1C5", "note": "[morphine]", "values": [{"measurement": "activation of hMOR (agonist-gated GIRK1/GIRK2 inward K+ current)", "value": "agonist-gated currents evoked"}]}
